Molecular target: blood DPP-4 activity (Rattus norvegicus, UniProt P14740)
Assay: In vivo DPP-4 inhibition assay (blood DPP-4 activity)
Conditions: SD rats, single oral dose 10 mg/kg

The chains behind the UniProt entries cited, without tags or fusion partners. Residues count along the entry.
UniProt P14740, 37-767 limits assumed: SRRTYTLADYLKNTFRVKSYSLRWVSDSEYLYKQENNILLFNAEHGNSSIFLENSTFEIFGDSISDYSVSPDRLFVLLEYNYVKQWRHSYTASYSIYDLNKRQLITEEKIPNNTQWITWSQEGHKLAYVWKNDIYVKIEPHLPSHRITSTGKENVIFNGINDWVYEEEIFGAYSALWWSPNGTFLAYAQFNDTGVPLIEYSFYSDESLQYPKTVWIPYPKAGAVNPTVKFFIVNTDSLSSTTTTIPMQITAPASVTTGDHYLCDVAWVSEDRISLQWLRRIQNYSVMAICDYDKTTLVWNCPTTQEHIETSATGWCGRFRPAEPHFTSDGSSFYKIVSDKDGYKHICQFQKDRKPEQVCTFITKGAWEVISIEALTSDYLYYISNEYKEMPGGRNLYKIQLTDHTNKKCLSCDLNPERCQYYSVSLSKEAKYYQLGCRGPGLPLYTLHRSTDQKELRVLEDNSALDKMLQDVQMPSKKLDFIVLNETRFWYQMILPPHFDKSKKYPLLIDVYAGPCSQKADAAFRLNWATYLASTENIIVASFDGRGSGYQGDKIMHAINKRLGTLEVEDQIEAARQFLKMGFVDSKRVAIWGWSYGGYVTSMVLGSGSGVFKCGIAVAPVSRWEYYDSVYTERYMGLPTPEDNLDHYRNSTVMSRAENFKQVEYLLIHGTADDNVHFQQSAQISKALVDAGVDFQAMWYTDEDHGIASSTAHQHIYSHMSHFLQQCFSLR

SMILES: Cn1c(=O)cc(N2CCC[C@@H](N)C2)n(Cc2ccccc2C#N)c1=O [Alogliptin, reference compound]
- DPP-4 blood activity (12 h): 20.95%
- DPP-4 blood activity (24 h): 56.1%
- DPP-4 blood activity (48 h): 97.05%
